Structures are written as SMILES. Only a part is listed here, and it is no random draw. Some salts or complexes appear as unconnected parts, following the source record. The source made the active and inactive calls.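 How the source made its calls: active means activity above about 14% (limit read from the data; passing the limit was not always enough); inactive means the rest.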

Sequences of proteins named here, by UniProt entry; tags and fusion partners are left off.
UniProt P20393, whole entry, looked up: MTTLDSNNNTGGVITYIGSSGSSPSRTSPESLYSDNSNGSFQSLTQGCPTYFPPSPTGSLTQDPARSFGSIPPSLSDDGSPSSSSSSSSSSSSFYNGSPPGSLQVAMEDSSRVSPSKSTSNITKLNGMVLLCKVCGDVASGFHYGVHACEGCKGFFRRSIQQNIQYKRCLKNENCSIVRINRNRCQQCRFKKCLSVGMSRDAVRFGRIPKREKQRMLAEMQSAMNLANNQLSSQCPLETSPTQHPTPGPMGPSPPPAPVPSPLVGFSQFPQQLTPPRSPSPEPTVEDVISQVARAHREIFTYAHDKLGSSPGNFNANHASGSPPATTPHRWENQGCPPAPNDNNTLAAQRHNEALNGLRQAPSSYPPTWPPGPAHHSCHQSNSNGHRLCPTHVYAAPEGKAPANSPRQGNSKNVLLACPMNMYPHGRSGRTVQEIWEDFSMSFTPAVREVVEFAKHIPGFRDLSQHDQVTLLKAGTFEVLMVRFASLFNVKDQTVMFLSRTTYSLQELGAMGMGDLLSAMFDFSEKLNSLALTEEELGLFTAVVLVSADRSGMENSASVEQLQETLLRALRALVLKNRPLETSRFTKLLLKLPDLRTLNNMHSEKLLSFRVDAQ

This assay has as its target Nuclear receptor subfamily 1 group D member 1 (Homo sapiens) (UniProt P20393). Description: Rev-erbα–DNA interaction modulation – biochemical, FITC-DNA, fluorescence polarization, uHTS, primary screen (AID 1259318).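 Further: 0% = DMSO wells with 35 nM protein and 100% = DMSO wells with 750 nM protein.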 The following applies: Rev-erbα–FITC-DNA binding, 90 min, at 10 µM, stronger effect = higher value.
On to `CP(=O)(OC12CC3CC(CC(C3)C1)C2)OC12CC3CC(CC(C3)C1)C2`, for which the activity was inactive: 4.76%.
For the molecule `CCOC(=O)c1ccc(NP(C)(=O)Oc2ccc(Cl)cc2)cc1` (configuration not stated), the activity was inactive: -0.04%.
`Nc1ccc2c(ccc3cccnc32)n1.O=[N+]([O-])c1cc([N+](=O)[O-])c(O)c([N+](=O)[O-])c1`: the activity was inactive: -1.71%.
For `CP(=O)(Oc1ccccc1)N1CCOC1=O` (configuration not stated), the activity is inactive: -3.81%.
With `CCc1ccc(OP(C)(=O)Nc2cccnc2)cc1` (configuration not stated) the figure was inactive: -5.62%.
Consider `COc1ccccc1OP(C)(=O)Nc1c(C)n(C)n(-c2ccccc2)c1=O` (configuration not stated), for which the activity is inactive: -0.63%.
With `OCCSCCO` the figure was inactive: -2.21%; with `O=C(OCCCN1CCCC1)C(O)(c1ccccc1)C1CCCCC1` (configuration not stated), inactive: -2.97%; with `COc1ccc(OP(C)(=O)Nc2ccc(Br)cc2)cc1` (configuration not stated), inactive: -2.56%.
Turning to `CN(C)C(=O)c1c([N+](=O)[O-])cc([N+](=O)[O-])cc1[N+](=O)[O-]`, the activity is inactive: -1.17%.
For the molecule `CP(=O)(Nc1ccc(Cl)cc1)Oc1ccc(F)cc1` (configuration not stated), the activity is inactive: 0.16%.
For `COc1ccccc1OP(C)(=O)Nc1ccccc1Br` (configuration not stated), the activity is inactive: -3.48%.
As for `CC(C)(C)c1ccc(OP(C)(=O)O)cc1`, the activity is inactive: -4.3%.
Then `CN(C)CCOC(=O)C(O)(c1ccccc1)C1CCCC1` (configuration not stated), with inactive: 5.27%; and `COc1ccc(OP(C)(=O)Nc2ccccn2)cc1` (configuration not stated), with inactive: -0.22%; and `COc1ccccc1OP(C)(=O)Nc1ccc(Br)cc1` (configuration not stated), with inactive: 1.25%.
`CCc1ccc(OP(C)(=O)O)cc1`: the activity is inactive: -1.75%.
Consider `CP(=O)(Nc1ccccn1)Oc1ccccc1` (configuration not stated), for which the activity is inactive: 3.92%.
`COc1ccccc1OP(C)(=O)Nc1ccc(C)cc1C` (configuration not stated): the activity was inactive: -3.58%.
Consider `Cc1c(NP(C)(=O)Oc2ccc(C(C)C)cc2)c(=O)n(-c2ccccc2)n1C` (configuration not stated), for which the activity was inactive: 2.47%.
In the case of `O=[N+]([O-])c1cc([N+](=O)[O-])c(Nc2ccccn2)c([N+](=O)[O-])c1`, the activity is inactive: -3.73%.
On to `COc1ccc(OP(C)(=O)Nc2ccccc2Br)cc1` (configuration not stated), for which the activity is inactive: 0.88%.
Regarding `COc1ccccc1OP(C)(=O)Nc1ccc(C)c(C)c1` (configuration not stated), the activity was inactive: -0.71%.
On to `O=C1C(O)=C([N+](=O)[O-])C(=O)C(O)=C1[N+](=O)[O-]`, for which the activity is inactive: -12.6%.
As to `Cc1cc(C)cc(OP(C)(=O)Nc2cccc(C(F)(F)F)c2)c1` (configuration not stated), the activity is inactive: 2.63%.
`CCCCCCCCCCCCCCCC1C[N+](C)(C)CCOP(C)(=O)O1` (configuration not stated): the activity is inactive: -0.78%.
On to `CP(=O)(Nc1ccc(Cl)cc1Cl)Oc1ccccc1` (configuration not stated), for which the activity was inactive: -1.84%.
Consider `CP(=O)(OCCOc1ccccc1)OCCOc1ccccc1`, for which the activity is inactive: 1.44%.
For `COc1ccc(OP(C)(=O)Nc2ccc(SC(F)(F)F)cc2)cc1` (configuration not stated), the activity is inactive: 6.13%.
For the molecule `CCOC(=O)c1ccc(NP(C)(=O)Oc2ccc(F)cc2)cc1` (configuration not stated), the activity is inactive: -2.03%.
With `CCN(CC)CCCNc1ccccc1[N+](=O)[O-].O=[N+]([O-])c1cc([N+](=O)[O-])c(O)c([N+](=O)[O-])c1` the figure was inactive: 0.47%; with `CCCCCOc1ccc(NP(C)(=O)Oc2ccc(Cl)cc2Cl)cc1` (configuration not stated), inactive: 2.7%; with `O=[N+]([O-])c1cc([N+](=O)[O-])c(OC2CCCCC2O)c([N+](=O)[O-])c1` (configuration not stated), inactive: 4.68%.
Regarding `CP(=O)(Nc1ccccc1)Oc1ccc(F)cc1` (configuration not stated), the activity was inactive: 1.55%.
Consider `CCN(CC)CCCOC(=O)C(O)(c1ccccc1)C1CCCCC1` (configuration not stated), for which the activity is inactive: -0.3%.
For the molecule `Cc1c([N+](=O)[O-])cc([N+](=O)[O-])c(Br)c1[N+](=O)[O-]`, the activity was inactive: 0.63%.
Turning to `CC(C)c1ccc(OP(C)(=O)Nc2ccc(SC(F)(F)F)cc2)cc1` (configuration not stated), the activity was inactive: 2.11%.
`CP(=O)(Nc1ccccc1F)Oc1ccccc1` (configuration not stated): the activity was inactive: -2.51%.
Then `O=[N+]([O-])c1cc([N+](=O)[O-])c(Nc2ccc(Cl)cc2)c([N+](=O)[O-])c1`, with inactive: 1.5%; and `COc1ccc2c(c1O)-c1c(O)c(OC)cc3c1[C@H](C2)[N+](C)(C)CC3.O=[N+]([O-])c1cc([N+](=O)[O-])c([O-])c([N+](=O)[O-])c1[O-]`, with inactive: -8.31%.
With `O=C(OCCN1CCN(CCOCc2ccccc2)CC1)C(O)(c1ccccc1)c1ccccc1` the figure was inactive: -0.36%.
With `O=C(OC1CN2CCC1CC2)c1ccc([N+](=O)[O-])cc1` (configuration not stated), the activity is inactive: -2.47%.
As to `CCOP(=O)(CC)OCC`, the activity is inactive: -2.75%.
In the case of `CCOP(C)(=S)SCC(=O)NC(C)(CC)C(=O)O` (configuration not stated), the activity is inactive: 2.7%.
Then `CP(=O)(Nc1ccc(SC(F)(F)F)cc1)Oc1ccc(F)cc1` (configuration not stated), with inactive: 0.77%; and `O=[N+]([O-])c1cc([N+](=O)[O-])c(C(F)(F)F)c([N+](=O)[O-])c1O`, with inactive: -1.67%.
Consider `Cc1ccccc1NP(C)(=O)Nc1ccccc1C`, for which the activity is inactive: 5.1%.
Then `CP(=O)(Nc1ccc2c(c1)OCCO2)Oc1ccccc1` (configuration not stated), with inactive: 2.18%.
With `COc1ccc(NP(C)(=O)Oc2ccccc2OC)cc1` (configuration not stated) the figure was inactive: 3.86%; with `CN(C)CCOC(=O)C(O)(c1ccccc1)C1CCCCC1` (configuration not stated), inactive: 6.69%.
As for `COc1ccc(OP(C)(=O)Nc2cccc(Br)c2)cc1` (configuration not stated), the activity is inactive: -5.5%.
Then `Cc1c(C(c2ccc3c(c2)OCO3)c2c(C)n(C)n(-c3ccccc3)c2=O)c(=O)n(-c2ccccc2)n1C.O=[N+]([O-])c1cc([N+](=O)[O-])c(O)c([N+](=O)[O-])c1`, with inactive: -3.22%; and `O=[N+]([O-])c1cc([N+](=O)[O-])c(NCC2CCS(=O)(=O)C2)c([N+](=O)[O-])c1` (configuration not stated), with inactive: -0.56%.
With `Cc1cc(-c2cccc3ccccc23)c(C)cn1.O=[N+]([O-])c1cc([N+](=O)[O-])c(O)c([N+](=O)[O-])c1` the figure was inactive: 4.53%; with `O=[N+]([O-])c1ccc(OP2(=O)COCCO2)cc1` (configuration not stated), inactive: -2.25%; with `O=[N+]([O-])c1cc([N+](=O)[O-])c(Nc2nnnn2CCO)c([N+](=O)[O-])c1`, inactive: 4.76%.
Consider `CCOC(=O)C(CC)C1=NC(C)(C)Cc2ccccc21.O=[N+]([O-])c1cc([N+](=O)[O-])c(O)c([N+](=O)[O-])c1` (configuration not stated), for which the activity was inactive: -1.87%.

The record behind these values is PubChem BioAssay AID1259318 (Sanford-Burnham Center for Chemical Genomics, 2017).
